Measured values published in BindingDB's records for doi:10.1016/j.chembiol.2017.01.006 (Sanford Burnham Prebys Medical Discovery Institute, 2017).

Chains of the proteins cited; added tags and fusions are not shown. Residues count along the entry.
UniProt P54764, 29-209: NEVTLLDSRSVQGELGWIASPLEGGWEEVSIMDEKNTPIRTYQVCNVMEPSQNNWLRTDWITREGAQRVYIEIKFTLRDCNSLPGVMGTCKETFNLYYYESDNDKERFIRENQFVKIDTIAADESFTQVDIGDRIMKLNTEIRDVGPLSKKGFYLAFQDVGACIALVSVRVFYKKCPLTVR
UniProt P54764, 29-209 M164A: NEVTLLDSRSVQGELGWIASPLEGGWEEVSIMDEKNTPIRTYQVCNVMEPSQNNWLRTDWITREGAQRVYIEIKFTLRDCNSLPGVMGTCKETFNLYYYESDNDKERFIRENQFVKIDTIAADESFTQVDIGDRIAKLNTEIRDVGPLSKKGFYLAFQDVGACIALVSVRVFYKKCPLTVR
UniProt P54764, 29-209 I67A: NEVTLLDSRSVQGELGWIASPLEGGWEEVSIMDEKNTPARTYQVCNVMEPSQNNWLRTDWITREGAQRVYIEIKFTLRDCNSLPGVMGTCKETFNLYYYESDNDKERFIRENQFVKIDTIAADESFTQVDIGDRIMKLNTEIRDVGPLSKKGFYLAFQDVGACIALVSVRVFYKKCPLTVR
UniProt P54764, 29-209 D61G/E62G: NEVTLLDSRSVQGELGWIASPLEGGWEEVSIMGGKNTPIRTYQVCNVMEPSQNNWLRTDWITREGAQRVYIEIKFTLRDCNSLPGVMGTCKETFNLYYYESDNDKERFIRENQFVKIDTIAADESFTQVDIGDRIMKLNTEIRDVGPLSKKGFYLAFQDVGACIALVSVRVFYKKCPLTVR
UniProt P54764, 29-209 I159A: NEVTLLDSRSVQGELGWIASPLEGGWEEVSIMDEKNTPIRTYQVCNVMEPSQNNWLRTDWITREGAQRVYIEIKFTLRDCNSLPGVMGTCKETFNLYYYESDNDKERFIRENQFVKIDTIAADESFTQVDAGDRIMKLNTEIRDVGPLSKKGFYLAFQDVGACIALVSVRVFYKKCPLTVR
UniProt P54764, 29-209 M60A: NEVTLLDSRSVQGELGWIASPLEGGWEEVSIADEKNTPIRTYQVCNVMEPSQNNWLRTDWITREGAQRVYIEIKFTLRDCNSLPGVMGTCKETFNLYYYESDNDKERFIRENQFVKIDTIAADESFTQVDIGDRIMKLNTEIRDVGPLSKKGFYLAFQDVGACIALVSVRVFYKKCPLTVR

What was measured:
[1] = target: T1, Ephrin type-A receptor 4 [29-209] (Homo sapiens, UniProt P54764); experiment: Fluorescence Polarization Assay; conditions: pH 7.2; 25 °C
T1 construct: 29-209
Procedure: For competitive binding assays, 1 mL of […] EphA4-LBD was pre-incubated with the tested compounds at various concentrations in 98 mL of PBS (pH 7.2) in 96-well black plates at roomtemperature for 10 min, after which 1 mL of 500 mMFITC-labeled EphA4 peptide was added to produce a final volume of […]. KYL and DMSO were incubated in each assay as positive and negative controls, respectively. After 30 min of incubation at room temperature, the polarization values in millipolarization units were measured at excitation/emission wavelengths of 480/535 nm with a multilabel plate reader (PerkinElmer).

[2] = target: T2, Ephrin type-A receptor 4 [29-209,M164A] (Homo sapiens, UniProt P54764, M164A); experiment: Isothermal Titration Calorimetry (ITC); conditions: pH 6.5; 27 °C
T2 construct: 29-209
Procedure: (§1) The purified EphA proteins (EphA4-LBD, EphA3-LBD, and EphA2-LBD) were dissolved in 50 mM potassium phosphate buffer (pH 6.5) containing 100 mM NaCl. Compound binding was detected at 27 °C by comparing either the 2D-[15N,1H]-HSQC or 2D-[13C,1H]-HSQC spectra of 50 mMEphA4-LBD in absence and presence of compounds at 50 mM. ITC were measured with Model ITC200 from Microcal/GE Life Sciences.

[3] = target: T3, Ephrin type-A receptor 4 [29-209,I67A] (Homo sapiens, UniProt P54764, I67A); experiment: Isothermal Titration Calorimetry (ITC); conditions: pH 6.5; 27 °C
T3 construct: 29-209
Procedure: as §1

[4] = target: T4, Ephrin type-A receptor 4 [29-209,D61G,E62G] (Homo sapiens, UniProt P54764, D61G/E62G); experiment: Isothermal Titration Calorimetry (ITC); conditions: pH 6.5; 27 °C
T4 construct: 29-209
Procedure: as §1

[5] = target: T5, Ephrin type-A receptor 4 [29-209,I159A] (Homo sapiens, UniProt P54764, I159A); experiment: Isothermal Titration Calorimetry (ITC); conditions: pH 6.5; 27 °C
T5 construct: 29-209
Procedure: as §1

[6] = target: T1, Ephrin type-A receptor 4 [29-209]; experiment: Isothermal Titration Calorimetry (ITC); conditions: pH 6.5; 27 °C
Procedure: as §1

[7] = target: T6, Ephrin type-A receptor 4 [29-209,M60A] (Homo sapiens, UniProt P54764, M60A); experiment: Isothermal Titration Calorimetry (ITC); conditions: pH 6.5; 27 °C
T6 construct: 29-209
Procedure: as §1

COc1ccc2[nH]cc(CCNC(=O)[C@H](Cc3ccncc3)NC(=O)[C@H](Cc3ccc(Cl)cc3)NC(=O)[C@H](Cc3c[nH]c4ccc(O)cc34)NC(=O)CCCN)c2c1 [123C4]
Ki [1]: 640 nM | Kd [2]: 62 nM | Kd [3]: 780 nM | Kd [4]: 340 nM | Kd [5]: 290 nM | Kd [6]: 420 nM | Kd [7]: 350 nM
